Experimental data taken from ChEMBL document CHEMBL3879907, “8-azabicyclo[3.2.1]octane compounds as mu opioid receptor antagonists” (2014).

Protein sequences, listed by entry. Tags and fused reporters are not part of them. Lines headed by an entry give the natural chain unless they say otherwise; changes in a name come on top.
UniProt P41144: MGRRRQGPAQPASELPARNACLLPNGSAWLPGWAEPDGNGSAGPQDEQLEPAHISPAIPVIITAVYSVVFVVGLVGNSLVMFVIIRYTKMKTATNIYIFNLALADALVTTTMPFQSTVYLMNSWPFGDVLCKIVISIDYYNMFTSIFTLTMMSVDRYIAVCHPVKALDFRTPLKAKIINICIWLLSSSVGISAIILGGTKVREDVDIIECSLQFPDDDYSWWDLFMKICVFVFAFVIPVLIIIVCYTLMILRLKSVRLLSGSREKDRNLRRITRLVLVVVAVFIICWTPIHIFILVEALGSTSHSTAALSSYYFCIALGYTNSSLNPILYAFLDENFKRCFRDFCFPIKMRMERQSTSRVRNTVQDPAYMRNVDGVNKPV

Molecular target: Kappa-type opioid receptor (Cavia porcellus, UniProt P41144)
Experiment: Displacement of [3H]-diprenorphine from guinea pig kappa opioid receptor expressed in CHOK1 cell membranes
Conditions: cho-k1

Structure (SMILES): NC(=O)c1cccc([C@H]2C[C@H]3CC[C@@H](C2)N3CCN(CCc2ccccc2)C(=O)CO)c1
- pKi: 7 to 10.5
